Data reported in US8629173B2, “Solid forms comprising (+)-2-[1-(3-ethoxy-4-methoxyphenyl)-2-methylsulfonylethyl]-4-acetylaminoisoindoline-1,3-dione, compositions thereof, and uses thereof” (Celgene Corporation, priority 2002, dated 2014).

Protein sequences, listed by entry. Tags and fused reporters are not part of them. Lines headed by an entry give the natural chain unless they say otherwise; changes in a name come on top.
UniProt Q13946: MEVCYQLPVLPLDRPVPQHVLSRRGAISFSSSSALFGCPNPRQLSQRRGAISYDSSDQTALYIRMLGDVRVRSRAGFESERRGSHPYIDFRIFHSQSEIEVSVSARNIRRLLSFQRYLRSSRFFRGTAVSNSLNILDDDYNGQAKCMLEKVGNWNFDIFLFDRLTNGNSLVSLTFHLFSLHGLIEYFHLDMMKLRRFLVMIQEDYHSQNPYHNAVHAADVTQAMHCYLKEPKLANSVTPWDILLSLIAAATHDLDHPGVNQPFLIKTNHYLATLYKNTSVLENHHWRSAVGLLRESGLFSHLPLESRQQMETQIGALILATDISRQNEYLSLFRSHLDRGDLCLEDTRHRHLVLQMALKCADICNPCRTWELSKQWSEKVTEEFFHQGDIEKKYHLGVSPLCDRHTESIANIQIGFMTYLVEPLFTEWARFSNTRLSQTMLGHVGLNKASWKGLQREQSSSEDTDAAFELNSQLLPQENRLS

Target: PDE7 purified from Hut78 human T cells (Homo sapiens, UniProt Q13946)
Test: PDE7 enzyme assay
Type: biochemical
Conditions: from Table 1 data
Protocol: PDE7 is a cAMP-selective PDE expressed mainly in T cells and in skeletal muscle. T cell-derived cytokines such as IL-2 and IFN-γ are potentially regulatable via PDE7 inhibition. […] Compounds were tested against the PDE7 preparation in the presence of 10 nM cAMP as described for PDE4 in Table 1.

CCOc1cc(C(CS(C)(=O)=O)N2C(=O)c3cccc(NC(C)=O)c3C2=O)ccc1OC (racemic) [Racemic Compound, 2-[1-(3-Ethoxy-4-methoxyphenyl)-2-methylsulfonylethyl]-4-acetylaminoisoindoline-1,3-dione]
PDE Specificity Ratio PDE7 IC50/PDE4 IC50: 270 fold
